Results from patent US9636379B2, “Compositions and methods for treating pruritus” (Washington University, priority 2007, dated 2017).

Biological target: T1, NMBR (Mus musculus, UniProt O54799)
T1 construct: NMBR is expressed in the most superficial layer of the dorsal spinal cord; endogenous in cells; host or cells: living wild-type mice, spinal cord (intrathecal injection)
T1 sequence (O54799 1-390): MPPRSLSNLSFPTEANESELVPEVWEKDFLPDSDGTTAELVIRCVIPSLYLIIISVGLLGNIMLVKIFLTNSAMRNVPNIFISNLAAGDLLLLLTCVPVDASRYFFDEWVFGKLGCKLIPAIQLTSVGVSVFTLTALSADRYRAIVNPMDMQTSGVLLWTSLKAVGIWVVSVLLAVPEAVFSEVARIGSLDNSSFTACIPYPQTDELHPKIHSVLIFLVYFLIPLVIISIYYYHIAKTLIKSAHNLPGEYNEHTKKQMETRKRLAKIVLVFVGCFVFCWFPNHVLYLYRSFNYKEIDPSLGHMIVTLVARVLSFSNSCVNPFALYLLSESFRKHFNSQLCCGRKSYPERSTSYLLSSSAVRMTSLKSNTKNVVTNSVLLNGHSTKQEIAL
Parameters: species or system mice
Conditions: in vivo

Question: For neuromedin B [NMB], which “scratching behaviors after i.t. NMB” value is on record?
Answer: Its value is “induced robust scratching behaviors”.
